# Assay results published in US20090047269A1, “METABOLOMIC CANCER TARGETS” (The Regents of the University of Michigan, priority 2007, published 2009).
# Experiments:
# Type in all cases: cell-based
# EGFR = test: Immunoblot analysis of EGFR phosphorylation and total EGFR; details: 50 mg/ml; RWPE cells
# [1] = test system: primary benign prostate epithelial cells PrEC; test: Modified Boyden chamber matrigel invasion assay, PrEC cells; details: 50 μg/ml
# [2] = test system: immortalized benign RWPE prostate cells; test: Modified Boyden chamber matrigel invasion assay, RWPE cells; details: 50 μg/ml
substance,measurement,setting,value
C225: antibody-mediated inhibition of EGFR activity,"EGFR phosphorylation, immunoblot",EGFR,inhibition of EGFR phosphorylation
same,effect on sarcosine induced invasion,[1],completely blocked
same,effect on sarcosine induced invasion,[2],completely blocked
